The numbers were not newly measured in paper PMC4079055 (The New England journal of medicine, 2014), which cites them from elsewhere.

The test system of the data set is advanced, ALK-rearranged NSCLC. Particulars: across multiple studies; cited from earlier work.

Regarding `C[C@@H](Oc1cc(-c2cnn(C3CCNCC3)c2)cnc1N)c1c(Cl)ccc(F)c1Cl` [crizotinib], the Response rates result was “approximately 60%”.
